Test results: US5959130A, “Castor based benzoate esters” (Finetex, Inc., priority 1997, dated 1999)

conditions: Gardnor scale

Substance | Color
Castor Oil Benzoate [Example 3] | 3
Castor Oil Benzoate [Example 4] | 3
Castor Oil Benzoate [Example 1] | 3
Castor Oil Benzoate [Example 5] | 3
Castor Oil Benzoate [Example 2] | 3
Benzoate Ester of Octylhydroxy Stearate [Example 12] | 3
